From article PMC3176149, “Application of Celluspots peptide arrays for the analysis of the binding specificity of epigenetic reading domains to modified histone tails” (BMC Biochemistry, 2011)
Entries after “also recorded” stand apart in the source; their conditions may differ.

Tests used:
[1] = tested on: Rag2 PHD finger (residues 311-520); test: Binding of GST-fused Rag2 PHD finger to modified histone peptides on Celluspots peptide arrays; parameters: species or system human; conditions: Rag2 PHD finger GST fusion 2 nM, room temperature, 2 hours, interaction buffer pH 7.5, ECL, tested at least two times
Method: In the present study, the binding specificities of seven known reading domains were analyzed using Celluspots peptide arrays comprising 384 peptides from 8 different regions of the N-terminal histone tails, viz. H3 1-19, 7-26, 16-35 and 26-45, H4 1-19 and 11-30, H2A 1-19 and H2B 1-19. The arrays are commercially available from Active Motif and feature 59 post-translational modifications (most of them identified, some of them hypothetical) in many different combinations (Additional file 1). Binding of the GST fused reading domain proteins to peptide arrays was visualized using an anti-GST antibody, followed by a secondary anti-goat-HRP antibody and ECL detection system. The domains were selected to represent the different folds of reading domains and show a wide range of specificities. […] Each reading domain was tested at least two times on the peptide arrays to ensure that the results are reliable. In case of weak signals, the experiment was repeated with higher protein concentration. In case of an overexposed image, the protein concentration was reduced. For quality control, each glass slide contains two identical copies of the array. The binding intensities for each tested reading domain were analyzed with the Array Analyze program, which calculates the average of the binding intensities to corresponding peptide spots in both copies of the array and prepares a graphical output - one scatter plot illustrating the binding intensities observed at corresponding spots in both copies of the array and a bar diagram showing the distribution of deviations of the binding intensities to the corresponding spots. […] The sequences encoding human HP1ß full length (residues 1-185), the Chromo domain of human MPP8 (residues 58-112), the double Tudor domain of human JMJ[…] […] Protein concentration was determined by UV spectroscopy. […] Similar results were observed here with reading domains. […]

[2] = tested on: 53BP1 tandem Tudor domain; conditions: ref [14],[15]; cited from earlier work
From the text: The Tudor domain folds into a ß-sandwich flanked by one α-helix. […] Indeed, all H4K20me2 modified peptides (the main target reported for the tandem Tudor domain of 53BP1 [14]) were specifically recognized by the 53BP1 tandem Tudor domain on the peptide array (Figure 5B).

[3] = tested on: 53BP1 tandem Tudor domain (residues 1490-1608); test: Binding of GST-fused 53BP1 tandem Tudor domain to modified histone peptides on Celluspots peptide arrays; parameters: species or system human; conditions: 53BP1 tandem Tudor GST fusion 1 μM, room temperature, 2 hours, interaction buffer pH 7.5, ECL, tested at least two times
Method: In the present study, the binding specificities of seven known reading domains were analyzed using Celluspots peptide arrays comprising 384 peptides from 8 different regions of the N-terminal histone tails, viz. H3 1-19, 7-26, 16-35 and 26-45, H4 1-19 and 11-30, H2A 1-19 and H2B 1-19. The arrays are commercially available from Active Motif and feature 59 post-translational modifications (most of them identified, some of them hypothetical) in many different combinations (Additional file 1). Binding of the GST fused reading domain proteins to peptide arrays was visualized using an anti-GST antibody, followed by a secondary anti-goat-HRP antibody and ECL detection system. The domains were selected to represent the different folds of reading domains and show a wide range of specificities. […] Each reading domain was tested at least two times on the peptide arrays to ensure that the results are reliable. […] The binding intensities for each tested reading domain were analyzed with the Array Analyze program, which calculates the average of the binding intensities to corresponding peptide spots in both copies of the array and prepares a graphical output - one scatter plot illustrating the binding intensities observed at corresponding spots in both copies of the array and a bar diagram showing the distribution of deviations of the binding intensities to the corresponding spots. […]

[4] = tested on: JMJD2A double Tudor domain (residues 856-1047); test: Binding of GST-fused JMJD2A double Tudor domain to modified histone peptides on Celluspots peptide arrays; parameters: species or system human; conditions: JMJD2A double Tudor GST fusion 10 nM, room temperature, 2 hours, interaction buffer pH 7.5, ECL, tested at least two times
Method: In the present study, the binding specificities of seven known reading domains were analyzed using Celluspots peptide arrays comprising 384 peptides from 8 different regions of the N-terminal histone tails, viz. H3 1-19, 7-26, 16-35 and 26-45, H4 1-19 and 11-30, H2A 1-19 and H2B 1-19. The arrays are commercially available from Active Motif and feature 59 post-translational modifications (most of them identified, some of them hypothetical) in many different combinations (Additional file 1). Binding of the GST fused reading domain proteins to peptide arrays was visualized using an anti-GST antibody, followed by a secondary anti-goat-HRP antibody and ECL detection system. […] In case of weak signals, the experiment was repeated with higher protein concentration. In case of an overexposed image, the protein concentration was reduced. For quality control, each glass slide contains two identical copies of the array. […] The sequences encoding human HP1ß full length (residues 1-185), the Chromo domain of human MPP8 (residues 58-112), the double Tudor domain of human JMJ[…] (residues 856-1047), the tandem Tudor domain of human 53BP1 (residues 1490-1608), the PHD finger of human Rag2 (residues 311-520) and the second Bromo domain of human BRD2 (residues 348-455) were amplified from cDNA derived from HEK293 cells and cloned as GST fusion proteins into the pGEX-6P-2 vector (GE Healthcare).

[5] = tested on: JMJD2A double Tudor domain; conditions: ref [14],[17],[18]; cited from earlier work
From the text: The Tudor domain folds into a ß-sandwich flanked by one α-helix.

[6] = tested on: Rag2 PHD finger; conditions: ref [20]; cited from earlier work
From the text: These binding modules are about 50 amino acids long and contain two binding sites for zinc ions.

[7] = molecular target: T1, MPP8 Chromo domain (Homo sapiens, UniProt Q99549); test: Peptide binding of MPP8 Chromo domain in solution by fluorescence depolarization; conditions: purified FITC-coupled peptides
T1 construct: the Chromo domain of human MPP8 (residues 58-112); made in house
T1 sequence (Q99549 58-112): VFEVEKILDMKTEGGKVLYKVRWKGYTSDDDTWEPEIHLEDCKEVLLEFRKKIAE
From the text: The sequences encoding human HP1ß full length (residues 1-185), the Chromo domain of human MPP8 (residues 58-112), the double Tudor domain of human JMJ[…] (residues 856-1047), the tandem Tudor domain of human 53BP1 (residues 1490-1608), the PHD finger of human Rag2 (residues 311-520) and the second Bromo domain of human BRD2 (residues 348-455) were amplified from cDNA derived from HEK293 cells and cloned as GST fusion proteins into the pGEX-6P-2 vector (GE Healthcare).

binding to modified histone tail peptides (array signal) [1]	binding to modified histone tail peptides (array signal) [3]	binding to modified histone tail peptides (array signal) [4]	Kd ([7]; fluorescence depolarization in solution, amino acids 1-19, fit to binary binding equilibrium, read-out: Binding constant)	binding in solution (in words) ([7]; fluorescence depolarization, amino acids 1-19)	Substance	interaction with 53BP1 tandem Tudor domain (literature) [2]	binding to JMJD2A double Tudor domain (literature) [5]	interaction with Rag2 PHD finger (literature) [6]
almost no binding signal					H3K4me1: H3K4me1 modified histone tail peptide on Celluspots array			
greatly reduced	not observed on the peptide array	not detectable			H3K4me2: H3K4me2 modified histone tail peptide on Celluspots array	reported to interact	weaker affinity; also recorded: reported to bind	
strongest signal		very weak			H3K4me3: H3K4me3 modified histone tail peptide on Celluspots array		weaker affinity; also recorded: reported to bind	reported to interact with H3K4me3; also recorded: interacts with H3K4me3
			> 50 µM	Loss of binding	H3K9me3-S10ph: double modified H3 peptide, FITC-coupled, amino acids 1-19			
